Amino acid sequences for entries named in this document (tags omitted). Residues count along the entry.
UniProt P10586, 30-1907: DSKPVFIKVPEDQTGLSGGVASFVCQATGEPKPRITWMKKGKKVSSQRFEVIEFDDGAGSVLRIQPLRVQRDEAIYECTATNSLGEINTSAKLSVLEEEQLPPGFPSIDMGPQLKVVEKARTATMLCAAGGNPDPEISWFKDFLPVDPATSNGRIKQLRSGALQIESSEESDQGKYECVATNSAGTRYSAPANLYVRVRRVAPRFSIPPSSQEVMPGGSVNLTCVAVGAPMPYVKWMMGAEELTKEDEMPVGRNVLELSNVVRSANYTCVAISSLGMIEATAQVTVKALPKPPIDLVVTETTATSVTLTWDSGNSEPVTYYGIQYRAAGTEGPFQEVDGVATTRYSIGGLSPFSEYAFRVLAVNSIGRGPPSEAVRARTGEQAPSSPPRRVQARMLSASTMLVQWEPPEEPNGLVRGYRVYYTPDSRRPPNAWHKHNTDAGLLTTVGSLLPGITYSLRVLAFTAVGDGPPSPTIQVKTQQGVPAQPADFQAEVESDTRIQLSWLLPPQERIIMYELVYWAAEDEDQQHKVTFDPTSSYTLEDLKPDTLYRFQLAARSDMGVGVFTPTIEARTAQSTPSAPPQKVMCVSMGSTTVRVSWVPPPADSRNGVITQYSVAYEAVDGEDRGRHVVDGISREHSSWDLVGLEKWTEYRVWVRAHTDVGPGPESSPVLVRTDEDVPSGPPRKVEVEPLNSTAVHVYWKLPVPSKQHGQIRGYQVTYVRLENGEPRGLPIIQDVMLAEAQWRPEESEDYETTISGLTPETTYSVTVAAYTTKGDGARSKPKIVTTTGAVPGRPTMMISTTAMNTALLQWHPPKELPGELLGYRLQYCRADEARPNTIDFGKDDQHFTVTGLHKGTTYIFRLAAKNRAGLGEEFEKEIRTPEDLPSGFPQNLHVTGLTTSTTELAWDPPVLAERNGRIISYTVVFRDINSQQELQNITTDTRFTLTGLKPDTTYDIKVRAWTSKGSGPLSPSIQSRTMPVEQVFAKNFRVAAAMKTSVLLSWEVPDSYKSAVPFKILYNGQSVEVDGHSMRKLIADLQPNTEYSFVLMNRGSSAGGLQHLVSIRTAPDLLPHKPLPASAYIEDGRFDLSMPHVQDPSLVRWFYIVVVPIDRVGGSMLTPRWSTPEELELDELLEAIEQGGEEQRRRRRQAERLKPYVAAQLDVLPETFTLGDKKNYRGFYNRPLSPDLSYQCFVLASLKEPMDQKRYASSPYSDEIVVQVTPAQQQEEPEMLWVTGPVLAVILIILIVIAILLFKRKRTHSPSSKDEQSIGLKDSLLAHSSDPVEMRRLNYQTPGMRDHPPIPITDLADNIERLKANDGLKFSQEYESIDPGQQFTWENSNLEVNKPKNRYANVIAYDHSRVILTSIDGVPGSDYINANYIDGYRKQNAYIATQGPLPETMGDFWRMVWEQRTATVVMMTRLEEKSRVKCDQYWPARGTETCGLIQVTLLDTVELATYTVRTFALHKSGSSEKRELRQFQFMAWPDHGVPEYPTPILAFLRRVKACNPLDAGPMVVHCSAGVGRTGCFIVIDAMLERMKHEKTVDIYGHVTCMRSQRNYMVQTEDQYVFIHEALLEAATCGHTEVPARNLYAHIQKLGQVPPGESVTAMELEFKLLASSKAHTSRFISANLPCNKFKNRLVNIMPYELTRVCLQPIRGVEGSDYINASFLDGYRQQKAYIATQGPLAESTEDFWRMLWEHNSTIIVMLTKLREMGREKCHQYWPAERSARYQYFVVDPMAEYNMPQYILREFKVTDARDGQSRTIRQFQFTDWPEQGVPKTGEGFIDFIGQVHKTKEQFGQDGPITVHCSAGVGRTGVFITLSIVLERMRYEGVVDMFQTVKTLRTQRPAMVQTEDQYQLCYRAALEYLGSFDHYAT
UniProt P08575, 599-1306: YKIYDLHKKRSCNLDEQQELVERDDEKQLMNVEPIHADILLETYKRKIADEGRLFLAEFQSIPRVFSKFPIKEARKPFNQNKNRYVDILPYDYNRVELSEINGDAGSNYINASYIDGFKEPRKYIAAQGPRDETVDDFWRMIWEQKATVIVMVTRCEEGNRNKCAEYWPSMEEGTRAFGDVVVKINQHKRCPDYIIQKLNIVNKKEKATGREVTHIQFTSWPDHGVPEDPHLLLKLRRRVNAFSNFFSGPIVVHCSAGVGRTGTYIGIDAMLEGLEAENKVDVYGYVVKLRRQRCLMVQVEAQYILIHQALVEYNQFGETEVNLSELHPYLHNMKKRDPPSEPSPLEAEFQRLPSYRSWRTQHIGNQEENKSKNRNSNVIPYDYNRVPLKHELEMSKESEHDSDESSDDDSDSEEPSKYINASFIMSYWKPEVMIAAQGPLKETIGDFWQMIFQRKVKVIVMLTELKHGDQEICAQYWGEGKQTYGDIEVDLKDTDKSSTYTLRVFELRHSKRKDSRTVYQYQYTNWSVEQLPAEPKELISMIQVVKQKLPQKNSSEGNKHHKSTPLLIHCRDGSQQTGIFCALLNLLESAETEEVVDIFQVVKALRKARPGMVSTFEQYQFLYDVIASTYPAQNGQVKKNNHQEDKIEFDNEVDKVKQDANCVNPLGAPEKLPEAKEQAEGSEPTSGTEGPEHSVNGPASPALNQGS
UniProt P23467, 1703-1963: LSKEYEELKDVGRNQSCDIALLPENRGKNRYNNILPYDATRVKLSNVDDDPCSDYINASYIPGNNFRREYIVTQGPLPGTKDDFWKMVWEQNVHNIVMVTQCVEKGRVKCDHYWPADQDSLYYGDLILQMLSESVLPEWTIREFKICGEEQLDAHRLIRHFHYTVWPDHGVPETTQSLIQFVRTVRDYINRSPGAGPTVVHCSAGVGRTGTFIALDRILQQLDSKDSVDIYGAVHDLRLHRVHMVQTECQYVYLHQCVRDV
UniProt P18433, 175-802: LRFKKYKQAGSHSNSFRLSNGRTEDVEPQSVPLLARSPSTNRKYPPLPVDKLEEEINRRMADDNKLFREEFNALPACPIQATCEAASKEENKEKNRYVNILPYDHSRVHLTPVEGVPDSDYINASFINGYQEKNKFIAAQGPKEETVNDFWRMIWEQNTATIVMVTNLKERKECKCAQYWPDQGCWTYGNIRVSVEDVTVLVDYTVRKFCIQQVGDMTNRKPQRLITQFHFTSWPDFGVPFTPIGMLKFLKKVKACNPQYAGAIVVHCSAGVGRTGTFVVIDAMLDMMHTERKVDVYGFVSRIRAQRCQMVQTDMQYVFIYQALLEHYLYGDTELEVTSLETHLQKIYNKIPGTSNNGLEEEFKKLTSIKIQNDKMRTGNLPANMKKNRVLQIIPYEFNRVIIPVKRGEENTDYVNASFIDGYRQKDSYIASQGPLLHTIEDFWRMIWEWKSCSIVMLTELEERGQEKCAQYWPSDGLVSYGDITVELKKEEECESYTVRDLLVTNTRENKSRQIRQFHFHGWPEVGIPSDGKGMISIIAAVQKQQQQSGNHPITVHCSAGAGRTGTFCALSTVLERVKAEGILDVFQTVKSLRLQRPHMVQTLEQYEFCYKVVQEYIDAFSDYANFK

In paper PMC12831972 (2025):

Tests used:
LAR = LAR (Homo sapiens, UniProt P10586); settings: read-out: LAR IC50
CD45 = CD45 (Homo sapiens, UniProt P08575); settings: read-out: CD45 IC50
PTPβ = PTPβ (Homo sapiens, UniProt P23467); settings: read-out: PTPβ IC50
PTPα = PTPα (Homo sapiens, UniProt P18433); settings: read-out: PTPα IC50

Measured: IC50

O=C(Nc1ccc(OCc2ccccc2)c(Cl)c1)C(=O)Nc1ccccc1NC(=O)[C@H](c1ccccc1)S(=O)(=O)O [8k]
> 50 µM: LAR | CD45 | PTPβ | PTPα
